Measured values as given in patent EP2767275A1, “Nortriptyline, haloperidol or prochlorperazine edisylate for use in the treatment of tuberculosis as well as two screening methods” (priority 2013, dated 2014).

Key:
[1] = tested on: infected human primary macrophages; details: 10 µM; for acidity of lysosomes (Lysotracker red intensity): over time
[2] = tested on: Human primary monocyte-derived macrophages infected with M. bovis BCG-GFP; format: cell-based
[3] = tested on: M. bovis BCG-GFP infected human primary monocyte-derived macrophages; format: cell-based
[4] = tested on: Human primary monocyte derived macrophages; details: 10µM, four hours

`CO[C@H]1/C=C/O[C@@]2(C)Oc3c(C)c(O)c4c(O)c(c(/C=N/N5CCN(C)CC5)c(O)c4c3C2=O)NC(=O)/C(C)=C\C=C\[C@H](C)[C@H](O)[C@@H](C)[C@@H](O)[C@@H](C)[C@H](OC(C)=O)[C@@H]1C` [Rifampin] was tested, and the “acidity of lysosomes (Lysotracker red intensity)” value (“acidity of lysosomes” below) [1] was “did not show enhanced lysosomal acidity”, the “co-localisation of mycobacteria to lysosomes” value ([1]; time course) was “Increased co-localisation of mycobacteria to lysosomes” and the “integral intensity of bacteria over time” value ([1]; time course) was “Decreased mean integral intensity of bacteria”. The “intensity of lysosomes that contain bacteria” value ([1]; time course) was “Increased intensity of lysosomes that contain bacteria”.

In the case of `CNCCC=C1c2ccccc2CCc2ccccc21` [Nortriptyline, 3-(10,11-dihydro-5H-dibenzo[a,d]cyclohepten-5-ylidene)-N-methyl-1-propanamine], the “localization of EEA1 to mycobacterial phagosomes” value (“localization of EEA1” below) [2] is reported as “not observed”, the mycobacteria within autophagosomes [3] is reported as “presence of mycobacteria within autophagosomes” and the “mycobacteria within autophagosomes in the presence of 3-MA” value [3] is reported as “not observed in autophagosomes but in mycobacterial phagosomes”. The “number and integral intensity of LC3 vesicles” value [4] was “increase in both number and integral intensity of LC3 vesicles”, the “toxicity to cells (total cell numbers)” value [4] was “not toxic to cells” and the “acidity of lysosomes” value [1] was “enhance the acidity of lysosomes”.

In the case of `O=C(CCCN1CCC(O)(c2ccc(Cl)cc2)CC1)c1ccc(F)cc1` [Haloperidol, 4-[4-(4-chlorophenyl)-4-hydroxy-1-piperidyl]-1-(4-fluorophenyl)-butan-1-one], the “co-localization of mycobacteria and LBPA over time” value [2] is reported as “increased with time”, the “localization of EEA1” value [2] is reported as “small, but significant, localization of EEA1 to mycobacterial phagosomes” and the mycobacteria within autophagosomes [3] is reported as “did not show this effect”.

With `CN1CCN(CCCN2c3ccccc3Sc3ccc(Cl)cc32)CC1` [Prochlorperazine edisylate, 2-chloro-10-[3-(4-methyl-1-piperazinyl)propyl]-10H-phenothiazine] the “localization of EEA1” value [2] was “not observed”, the mycobacteria within autophagosomes [3] was “presence of mycobacteria within autophagosomes” and the “mycobacteria within autophagosomes in the presence of 3-MA” value [3] was “not observed in autophagosomes but in mycobacterial phagosomes”. For the same molecule, the “number and integral intensity of LC3 vesicles” value [4] was “increase in both number and integral intensity of LC3 vesicles”, the “toxicity to cells (total cell numbers)” value [4] was “not toxic to cells” and the “acidity of lysosomes” value [1] was “significantly increased the acidity”. The “integral intensity of bacteria over time” value ([1]; time course) was “reduction in bacterial intensity”.
